{
  "source": "patent US9931350B2",
  "about": "“Anti-infective and osteogenic compositions and methods of use” (BRIGHAM YOUNG UNIVERSITY, priority 2014, dated 2018)",
  "molecules": {"B1": {"name": "rhBMP-2: recombinant human bone morphogenetic protein BMP-2 (protein, UniProt P12643 283-396, looked up)", "Bone morphogenetic protein 2": "QAKHKQRKRLKSSCKRHPLYVDFSDVGWNDWIVAPPGYHAFYCHGECPFPLADHLNSTNHAIVQTLVNSVNSKIPKACCVPTELSAISMLYLDENEKVVLKNYQDMVVEGCGCR"}},
  "key": {"[1]": {"tested_on": "open fracture", "experiment": "Mammalian open fracture model, without bacteria inoculation", "format": "in vivo, rats", "protocol": "(§1) A mammalian open fracture model was conducted using rats (n=42, n=41 after anesthesia recovery) with and without bacteria inoculation, based on the gap healing model of Chen et al. (J Bone Joint Surg Am. 88-A:1510-23, 2006). In this model, infection was initiated by delivery of 10^4 CFU of pathogenic Staphlococcus aureus in ACS at the time of surgery. […] Animals received treatment with 10 μg rhBMP-2 and/or 250 μg CSA-90 co-delivered via the ACS implant. The primary outcome measure was the number of animals culled with infected fractures. Animal health and radiographic bone healing were monitored by an experienced veterinarian in a blinded fashion to inoculation or treatment. Animals diagnosed as having progressively deteriorating condition with XRs showing evidence of infection were culled and infection confirmed by culture swab post-mortem. Secondary outcome measures included union at 3 weeks and 6 weeks (excluding pin-slippage), and bone callus microCT measures at 6 weeks."}, "[2]": {"tested_on": "Staphlococcus aureus", "experiment": "Mammalian open fracture model, inoculated with S. aureus", "format": "in vivo, rats", "protocol": "as §1"}, "[3]": {"tested_on": "ectopic bone formation", "experiment": "Mammalian ectopic bone formation model", "format": "in vivo, mouse", "settings": "10 μg rhBMP-2 via ACS", "protocol": "Using a mouse model, 10 μg rhBMP-2 was delivered via a Medronic absorbable collagen sponge (ACS). The effects of the addition of 25 μg and 250 μg ceragenin (CSA-90) were tested as was 250 μg ceragenin (CSA-90) dosed in the absence of rhBMP-2. Bone formation was examined by XR (Faxitron) and quantified by microCT (Skyscan 1174). Bone nodules were also examined by histology. Scanning data confirmed increases in bone volume with the addition of the ceragenin (See FIG. 1)."}},
  "data": [
    {"molecule": "B1", "values": [
      {"measurement": "Union rate at 3 weeks", "setting": "[1]; 3 weeks, no S. aureus", "result": 100, "unit": "%"},
      {"measurement": "Pin Slip Cull Rate", "setting": "[1]; no bacteria", "result": 17, "unit": "%"},
      {"measurement": "# Infected Culls", "setting": "[1]; no bacteria, animals/group", "result": "0/6"},
      {"measurement": "# Pin Slips", "setting": "[1]; no bacteria, animals/group", "result": "1/6"},
      {"measurement": "Pin Slip Cull Rate", "setting": "[2]; 10^4 cfu Staph", "result": 0, "unit": "%"},
      {"measurement": "# Infected Culls", "setting": "[2]; 10^4 cfu Staph, animals/group", "result": "3/3"},
      {"measurement": "# Pin Slips", "setting": "[2]; 10^4 cfu Staph, animals/group", "result": "0/3"},
      {"measurement": "Animals culled with infected fractures", "setting": "[2]; inoculated with S. aureus", "result": "all animals being culled with infections"},
      {"measurement": "Time of cull with infection", "setting": "[2]; inoculated with S. aureus, n=3", "result": "~17", "unit": "days"},
      {"measurement": "Union in the presence of bacteria", "setting": "[2]; rhBMP-2 alone", "result": "did not promote union"},
      {"measurement": "Induction of bone nodules", "setting": "[3]", "result": "induced bone nodules"}
    ]}
  ]
}
